Source: patent US20070208088A1, “PQS: A NEW HYDROTROPE FOR SOLUBILIZING LIPOPHILIC COMPOUNDS IN WATER” (ZYMES, LLC, priority 2006, published 2007)

Row | Substance | solubility in water
1 | polyoxyethanyl-ubiquinol-sebacate [PQS-1000] | water soluble
2 | polyoxyethanyl-ubiquinol-sebacate [PQS-600] | water-soluble
